The target in assay [1] is YgjD–YeaZ heterodimer (Escherichia coli K-12) (UniProt P05852).
Assay [2] concerns the target YjeE (TsaE) (Escherichia coli K-12) (UniProt P0AF67). The experiment in a line: SEC; gel filtration of YjeE at various time lapses after purification. On the technique in general: SEC sorts molecules by how far they enter the pores of the column.
For assay [3] the target is unchanged. As to the kind of experiment: SEC + other: SAXS; HPLC gel filtration coupled to SAXS; in presence of 1.0 mM ATP and 2.0 mM MgCl2; YgjD–YeaZ and YjeE mixed 1:4.
For assay [4], the target named is YgjD–YeaZ heterodimer (Escherichia coli K-12) (UniProt P05852). This is another data set of the same source.

In general, stoichiometry N refers to a count of units in the complex or per binding partner.

Turning to “YjeE (TsaE) (from UniProt P0AF67 1-153) (enzyme)”, the kcat of ATP hydrolysis by YgjD–YeaZ–2xYjeE (NADH-coupled ATPase assay, 20°C) in assay [1] worked out at 0.4 s⁻¹. Besides, in assay [2], the percent monomer 18 h after purification is less than 20% and the stoichiometry N stood at 2. The stoichiometry N in assay [3] was 2.

As for “YjeE^E108A (from UniProt P0AF67 1-153) (enzyme)”, the drop of the in vitro biosynthesis of t^6A (HPLC/MS of digested tRNA) in assay [4] turned out to be 60%.
